Laboratory results from patent EP4834897A1, “COMPOUNDS WITH TWO AZAHETEROCYCLES SUBSTITUTED ISOINDOLINONE SKELETON AND USES THEREOF” (dated 2026).

Sequences of proteins named here, by UniProt entry; tags and fusion partners are left off.
UniProt Q96SW2, whole entry: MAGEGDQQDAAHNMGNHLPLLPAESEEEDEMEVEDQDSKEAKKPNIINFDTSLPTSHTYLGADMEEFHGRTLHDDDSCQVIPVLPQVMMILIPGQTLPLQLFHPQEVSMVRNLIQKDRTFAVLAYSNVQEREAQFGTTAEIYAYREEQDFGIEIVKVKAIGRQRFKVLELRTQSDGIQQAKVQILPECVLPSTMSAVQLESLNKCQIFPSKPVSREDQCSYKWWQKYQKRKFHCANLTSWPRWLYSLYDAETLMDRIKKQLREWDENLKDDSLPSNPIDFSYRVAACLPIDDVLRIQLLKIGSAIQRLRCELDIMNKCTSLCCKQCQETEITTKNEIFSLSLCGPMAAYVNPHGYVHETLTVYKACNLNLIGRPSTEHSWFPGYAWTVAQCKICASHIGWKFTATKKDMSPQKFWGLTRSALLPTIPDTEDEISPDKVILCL
UniProt Q13422, whole entry: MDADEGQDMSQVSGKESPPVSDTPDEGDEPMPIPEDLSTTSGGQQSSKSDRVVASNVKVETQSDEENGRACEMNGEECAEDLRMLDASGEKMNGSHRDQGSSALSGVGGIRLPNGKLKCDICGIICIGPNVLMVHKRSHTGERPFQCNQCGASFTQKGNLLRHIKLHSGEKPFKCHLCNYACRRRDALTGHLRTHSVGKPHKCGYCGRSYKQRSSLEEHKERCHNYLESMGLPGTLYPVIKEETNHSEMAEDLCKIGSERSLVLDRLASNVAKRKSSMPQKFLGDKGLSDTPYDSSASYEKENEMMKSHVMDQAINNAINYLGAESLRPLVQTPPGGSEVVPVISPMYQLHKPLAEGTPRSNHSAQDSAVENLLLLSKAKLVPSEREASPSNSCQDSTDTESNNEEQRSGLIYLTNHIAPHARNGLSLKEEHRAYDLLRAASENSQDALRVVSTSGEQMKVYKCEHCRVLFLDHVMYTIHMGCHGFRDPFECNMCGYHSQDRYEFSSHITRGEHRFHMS
UniProt Q9UKS7, whole entry: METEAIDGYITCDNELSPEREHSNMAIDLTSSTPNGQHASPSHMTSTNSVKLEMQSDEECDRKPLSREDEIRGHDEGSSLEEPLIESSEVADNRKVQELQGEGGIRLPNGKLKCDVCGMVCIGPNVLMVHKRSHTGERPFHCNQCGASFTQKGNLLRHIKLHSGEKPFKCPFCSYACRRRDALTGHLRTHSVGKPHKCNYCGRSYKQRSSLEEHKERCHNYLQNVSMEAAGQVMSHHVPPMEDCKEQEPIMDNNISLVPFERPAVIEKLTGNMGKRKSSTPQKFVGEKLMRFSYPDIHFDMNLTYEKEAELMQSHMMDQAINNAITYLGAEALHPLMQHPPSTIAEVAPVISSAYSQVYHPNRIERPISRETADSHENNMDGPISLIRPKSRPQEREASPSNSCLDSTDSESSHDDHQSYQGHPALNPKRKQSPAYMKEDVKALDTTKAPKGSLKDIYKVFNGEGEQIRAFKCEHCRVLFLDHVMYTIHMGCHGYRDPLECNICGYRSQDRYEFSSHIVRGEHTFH
UniProt Q9UKT9, whole entry: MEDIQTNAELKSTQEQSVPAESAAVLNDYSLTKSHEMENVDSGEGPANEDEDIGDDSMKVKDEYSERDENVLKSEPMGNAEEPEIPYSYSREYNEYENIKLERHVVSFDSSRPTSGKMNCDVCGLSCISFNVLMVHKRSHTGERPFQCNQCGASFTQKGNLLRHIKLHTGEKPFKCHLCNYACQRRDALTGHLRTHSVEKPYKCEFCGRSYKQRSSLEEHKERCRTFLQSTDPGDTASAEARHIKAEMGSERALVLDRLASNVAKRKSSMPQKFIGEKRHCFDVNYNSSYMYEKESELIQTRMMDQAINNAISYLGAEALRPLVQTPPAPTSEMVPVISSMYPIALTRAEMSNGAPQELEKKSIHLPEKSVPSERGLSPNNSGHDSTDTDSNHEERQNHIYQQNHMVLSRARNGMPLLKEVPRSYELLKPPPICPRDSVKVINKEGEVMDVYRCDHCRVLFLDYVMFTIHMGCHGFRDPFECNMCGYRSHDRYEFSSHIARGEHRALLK
UniProt P48729, whole entry: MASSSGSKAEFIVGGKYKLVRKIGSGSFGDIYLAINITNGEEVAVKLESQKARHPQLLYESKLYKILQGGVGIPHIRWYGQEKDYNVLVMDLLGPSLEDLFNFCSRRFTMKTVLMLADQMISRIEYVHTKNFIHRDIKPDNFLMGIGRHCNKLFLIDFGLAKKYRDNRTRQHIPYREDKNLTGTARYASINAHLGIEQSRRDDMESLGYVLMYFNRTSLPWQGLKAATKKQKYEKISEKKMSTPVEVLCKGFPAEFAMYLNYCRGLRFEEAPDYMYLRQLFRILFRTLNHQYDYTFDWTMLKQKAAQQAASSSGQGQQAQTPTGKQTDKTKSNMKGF
UniProt P15170, whole entry: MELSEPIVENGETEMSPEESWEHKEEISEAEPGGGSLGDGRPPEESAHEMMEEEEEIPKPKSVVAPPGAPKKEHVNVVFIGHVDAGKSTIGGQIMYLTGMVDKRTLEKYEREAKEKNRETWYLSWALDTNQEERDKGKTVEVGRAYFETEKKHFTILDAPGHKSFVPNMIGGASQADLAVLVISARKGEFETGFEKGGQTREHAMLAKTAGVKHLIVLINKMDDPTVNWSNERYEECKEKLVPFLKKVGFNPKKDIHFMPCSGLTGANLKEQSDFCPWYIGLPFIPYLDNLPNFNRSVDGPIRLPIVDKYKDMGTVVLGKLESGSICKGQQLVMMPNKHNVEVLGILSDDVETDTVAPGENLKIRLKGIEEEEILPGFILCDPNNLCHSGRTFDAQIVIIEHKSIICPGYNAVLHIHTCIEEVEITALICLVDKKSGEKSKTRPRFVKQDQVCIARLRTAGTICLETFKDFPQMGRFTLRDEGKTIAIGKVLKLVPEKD
UniProt P30291, whole entry: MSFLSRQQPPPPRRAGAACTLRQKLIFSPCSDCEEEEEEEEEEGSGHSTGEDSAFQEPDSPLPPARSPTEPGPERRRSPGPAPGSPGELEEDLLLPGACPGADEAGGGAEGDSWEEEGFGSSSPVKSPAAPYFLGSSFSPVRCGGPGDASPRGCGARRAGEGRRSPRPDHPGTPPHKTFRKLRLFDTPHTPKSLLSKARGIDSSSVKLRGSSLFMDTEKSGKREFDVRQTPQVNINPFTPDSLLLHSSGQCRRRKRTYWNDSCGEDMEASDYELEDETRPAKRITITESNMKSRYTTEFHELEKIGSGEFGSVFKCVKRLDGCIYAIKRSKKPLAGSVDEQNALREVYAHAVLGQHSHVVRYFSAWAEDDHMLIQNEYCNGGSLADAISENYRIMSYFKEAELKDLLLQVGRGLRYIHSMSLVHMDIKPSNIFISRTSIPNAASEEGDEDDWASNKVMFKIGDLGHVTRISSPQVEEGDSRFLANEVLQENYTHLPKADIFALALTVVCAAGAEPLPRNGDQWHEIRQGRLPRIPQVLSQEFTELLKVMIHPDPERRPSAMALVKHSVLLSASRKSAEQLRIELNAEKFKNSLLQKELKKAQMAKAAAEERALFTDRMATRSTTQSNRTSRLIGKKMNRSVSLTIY
UniProt Q16531, whole entry partner: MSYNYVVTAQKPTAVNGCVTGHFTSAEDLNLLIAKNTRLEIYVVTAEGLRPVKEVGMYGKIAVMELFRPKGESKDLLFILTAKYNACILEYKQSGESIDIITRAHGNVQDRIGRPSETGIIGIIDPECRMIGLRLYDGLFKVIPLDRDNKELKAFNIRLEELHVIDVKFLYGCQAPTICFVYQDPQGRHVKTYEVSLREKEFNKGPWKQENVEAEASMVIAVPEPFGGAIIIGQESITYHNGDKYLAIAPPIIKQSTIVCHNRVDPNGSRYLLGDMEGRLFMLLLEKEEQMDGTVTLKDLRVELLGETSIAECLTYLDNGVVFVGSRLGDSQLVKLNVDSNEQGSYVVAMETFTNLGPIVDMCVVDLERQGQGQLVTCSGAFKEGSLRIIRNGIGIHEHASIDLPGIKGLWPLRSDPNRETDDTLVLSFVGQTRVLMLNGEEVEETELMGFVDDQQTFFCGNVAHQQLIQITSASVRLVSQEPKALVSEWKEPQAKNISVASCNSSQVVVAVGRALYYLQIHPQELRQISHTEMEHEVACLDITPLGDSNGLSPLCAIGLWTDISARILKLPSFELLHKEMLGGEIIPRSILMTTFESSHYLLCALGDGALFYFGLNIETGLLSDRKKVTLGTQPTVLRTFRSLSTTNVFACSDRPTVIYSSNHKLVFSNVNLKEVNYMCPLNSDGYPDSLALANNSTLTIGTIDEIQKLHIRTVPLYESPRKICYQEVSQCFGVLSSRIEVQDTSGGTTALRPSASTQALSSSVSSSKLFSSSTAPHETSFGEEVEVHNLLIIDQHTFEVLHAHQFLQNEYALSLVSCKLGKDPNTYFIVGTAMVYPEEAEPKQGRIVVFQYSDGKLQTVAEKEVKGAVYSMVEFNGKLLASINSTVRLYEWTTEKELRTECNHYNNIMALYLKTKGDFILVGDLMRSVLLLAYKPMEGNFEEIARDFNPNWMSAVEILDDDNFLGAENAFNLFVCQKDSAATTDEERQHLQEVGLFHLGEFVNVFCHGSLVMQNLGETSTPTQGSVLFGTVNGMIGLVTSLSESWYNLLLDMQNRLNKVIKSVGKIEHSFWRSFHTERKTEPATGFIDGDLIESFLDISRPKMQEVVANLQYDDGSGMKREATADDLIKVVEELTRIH

Key:
CRBN = CRBN (Homo sapiens, UniProt Q96SW2); assay: CRBN binding affinity by HTRF (CEREBLON BINDING kit); settings: for Inhibition Rate at 0.5 µM (%) / Inhibition Rate at 2 µM (%): CRBN binding, HTRF; for Inhibition Rate at 0.5 µM (%): compound at 0.5 µM; for Inhibition Rate at 2 µM (%): compound at 2 µM; for IC50: read-out: HTRF IC50, human Cereblon WT GST-tagged protein, 3 hours at room temperature
IKZF1 = IKZF1 (Homo sapiens, UniProt Q13422+Q96SW2); assay: Western blot assay of substrate protein degradation in hPBMCs; settings: 24 hours treatment, compounds at 50 nM and 500 nM (concentration behind the class not stated)
IKZF2 = IKZF2 (Homo sapiens, UniProt Q96SW2+Q9UKS7); assay: as above; settings: 24 hours treatment, compounds at 50 nM and 500 nM (concentration behind the class not stated)
IKZF3 = IKZF3 (Homo sapiens, UniProt Q96SW2+Q9UKT9); assay: as above; settings: 24 hours treatment, compounds at 50 nM and 500 nM (concentration behind the class not stated)
CK1α = CK1α (Homo sapiens, UniProt P48729+Q96SW2); assay: as above; settings: 24 hours treatment, compounds at 50 nM and 500 nM (concentration behind the class not stated)
GSPT1 = GSPT1 (Homo sapiens, UniProt P15170+Q96SW2); assay: as above; settings: 24 hours treatment, compounds at 50 nM and 500 nM (concentration behind the class not stated)
WEE1 = WEE1 (Homo sapiens, UniProt P30291+Q96SW2); assay: as above; settings: 24 hours treatment, compounds at 50 nM and 500 nM (concentration behind the class not stated)

Row | Compound | Inhibition Rate at 0.5 µM (%) (CRBN) | Inhibition Rate at 2 µM (%) (CRBN) | IC50 (CRBN) | substrate protein remaining % (IKZF 1) (IKZF1) | substrate protein remaining % (IKZF2) (IKZF2) | substrate protein remaining % (IKZF3) (IKZF3) | substrate protein remaining % (CK1a) (CK1α) | substrate protein remaining % (GSPT1) (GSPT1) | substrate protein remaining % (WEE1) (WEE1)
1 | O=C1CCC(N2Cc3cc(CN4CCC(N5CCN(c6noc7cc(F)ccc67)CC5)CC4)ccc3C2=O)C(=O)N1 (centres unmarked) |  |  | 100 to 500 nM | A (0% ≤ substrate protein remaining % ≤ 80%) | B (80%< substrate protein remaining %≤ 100%) | A (0% ≤ substrate protein remaining % ≤ 80%) | B (80%< substrate protein remaining %≤ 100%) | A (0% ≤ substrate protein remaining % ≤ 80%) | A (0% ≤ substrate protein remaining % ≤ 80%)
2 | O=C1CCC(N2Cc3cc(CCCN4CCC(N5CCN(C(c6ccccc6)c6ccccc6)CC5)CC4)ccc3C2=O)C(=O)N1 (centres unmarked) | a5 (53% < a5 ≤ 60%) | a8 (80% < a8 ≤100%) |  | B (80%< substrate protein remaining %≤ 100%) | A (0% ≤ substrate protein remaining % ≤ 80%) | B (80%< substrate protein remaining %≤ 100%) | B (80%< substrate protein remaining %≤ 100%) | B (80%< substrate protein remaining %≤ 100%) | B (80%< substrate protein remaining %≤ 100%)
3 | O=C1CCC(N2Cc3cc(CCN4CCC(N5CC=C(c6cccc(Cl)c6Cl)CC5)C(F)(F)C4)ccc3C2=O)C(=O)N1 (centres unmarked) | a4 (40% < a4 ≤ 53%) | a8 (80% < a8 ≤100%) |  | B (80%< substrate protein remaining %≤ 100%) | B (80%< substrate protein remaining %≤ 100%) | B (80%< substrate protein remaining %≤ 100%) | B (80%< substrate protein remaining %≤ 100%) | A (0% ≤ substrate protein remaining % ≤ 80%) | B (80%< substrate protein remaining %≤ 100%)
4 | O=C1CCC(N2Cc3cc(CN4CCC(N5CCN(C(c6ccccc6)c6ccccc6)CC5)C(F)(F)C4)cc(F)c3C2=O)C(=O)N1 (centres unmarked) |  |  | 500 to 1000 nM | A (0% ≤ substrate protein remaining % ≤ 80%) | B (80%< substrate protein remaining %≤ 100%) | A (0% ≤ substrate protein remaining % ≤ 80%) | B (80%< substrate protein remaining %≤ 100%) | A (0% ≤ substrate protein remaining % ≤ 80%) | A (0% ≤ substrate protein remaining % ≤ 80%)
5 | O=C1CCC(N2Cc3cc(CN4CCC(N5CCC(c6noc7cc(F)ccc67)CC5)C(F)(F)C4)ccc3C2=S)C(=O)N1 (centres unmarked) | a5 (53% < a5 ≤ 60%) | a8 (80% < a8 ≤100%) |  | B (80%< substrate protein remaining %≤ 100%) | B (80%< substrate protein remaining %≤ 100%) | A (0% ≤ substrate protein remaining % ≤ 80%) | B (80%< substrate protein remaining %≤ 100%) | B (80%< substrate protein remaining %≤ 100%) | A (0% ≤ substrate protein remaining % ≤ 80%)
6 | O=C1CCC(N2Cc3c(CN4CCC(N5CCN(c6cccc(Cl)c6Cl)CC5)CC4)cccc3C2=O)C(=O)N1 (centres unmarked) |  |  | 1000 to 1500 nM | A (0% ≤ substrate protein remaining % ≤ 80%) | A (0% ≤ substrate protein remaining % ≤ 80%) | B (80%< substrate protein remaining %≤ 100%) | B (80%< substrate protein remaining %≤ 100%) | A (0% ≤ substrate protein remaining % ≤ 80%) | B (80%< substrate protein remaining %≤ 100%)
7 | O=C1CCC(N2Cc3cc(C(=O)N4CCC(N5CCN(C(c6ccccc6)c6ccccc6)CC5)C(F)(F)C4)ccc3C2=O)C(=O)N1 (centres unmarked) | a3 (30% < a3 ≤ 40%) | a6 (60% < a6 ≤ 70%) |  | A (0% ≤ substrate protein remaining % ≤ 80%) | B (80%< substrate protein remaining %≤ 100%) | B (80%< substrate protein remaining %≤ 100%) | B (80%< substrate protein remaining %≤ 100%) | A (0% ≤ substrate protein remaining % ≤ 80%) | A (0% ≤ substrate protein remaining % ≤ 80%)
8 | O=C1CCC(N2Cc3cccc(CN4CCC(N5CC=C(c6cccc(Cl)c6Cl)CC5)C(F)(F)C4)c3C2=O)C(=O)N1 (centres unmarked) | a4 (40% < a4 ≤ 53%) | a6 (60% < a6 ≤ 70%) |  | B (80%< substrate protein remaining %≤ 100%) | B (80%< substrate protein remaining %≤ 100%) | B (80%< substrate protein remaining %≤ 100%) | B (80%< substrate protein remaining %≤ 100%) | A (0% ≤ substrate protein remaining % ≤ 80%) | B (80%< substrate protein remaining %≤ 100%)
9 | O=C1CCC(N2Cc3cc(CN4CCC(N5CCN(C(c6ccccc6)c6ccccc6)CC5)CC4)ccc3C2=O)C(=O)N1 (centres unmarked) |  |  | 500 to 1000 nM | B (80%< substrate protein remaining %≤ 100%) | A (0% ≤ substrate protein remaining % ≤ 80%) | A (0% ≤ substrate protein remaining % ≤ 80%) | A (0% ≤ substrate protein remaining % ≤ 80%) | A (0% ≤ substrate protein remaining % ≤ 80%) | B (80%< substrate protein remaining %≤ 100%)

Further lines, with some results ahead:

Row | Inhibition Rate at 0.5 µM (%) (CRBN) | Inhibition Rate at 2 µM (%) (CRBN) | IC50 (CRBN) | Compound | substrate protein remaining % (IKZF 1) (IKZF1) | substrate protein remaining % (IKZF2) (IKZF2) | substrate protein remaining % (IKZF3) (IKZF3) | substrate protein remaining % (CK1a) (CK1α) | substrate protein remaining % (GSPT1) (GSPT1) | substrate protein remaining % (WEE1) (WEE1)
10 | a3 (30% < a3 ≤ 40%) | a6 (60% < a6 ≤ 70%) |  | O=C1CCC(N2Cc3cc(C(=O)N4CCC(N5CCN(c6noc7cc(F)ccc67)CC5)CC4)cc(F)c3C2=O)C(=O)N1 (centres unmarked) | B (80%< substrate protein remaining %≤ 100%) | B (80%< substrate protein remaining %≤ 100%) | B (80%< substrate protein remaining %≤ 100%) | A (0% ≤ substrate protein remaining % ≤ 80%) | A (0% ≤ substrate protein remaining % ≤ 80%) | A (0% ≤ substrate protein remaining % ≤ 80%)
11 | a4 (40% < a4 ≤ 53%) | a7 (70% < a7 ≤80%) |  | O=C1CCC(N2Cc3cc(CN4CCC(N5CCN(c6cccc(Cl)c6Cl)CC5)C(F)(F)C4)cc(F)c3C2=O)C(=O)N1 (centres unmarked) | B (80%< substrate protein remaining %≤ 100%) | B (80%< substrate protein remaining %≤ 100%) | B (80%< substrate protein remaining %≤ 100%) | B (80%< substrate protein remaining %≤ 100%) | A (0% ≤ substrate protein remaining % ≤ 80%) | B (80%< substrate protein remaining %≤ 100%)
12 |  |  | 1000 to 1500 nM | O=C1CCC(N2Cc3cc(CN4CCC(N5CCN(c6cccc(Cl)c6Cl)CC5)CC4)ccc3C2=O)C(=O)N1 (centres unmarked) | A (0% ≤ substrate protein remaining % ≤ 80%) | B (80%< substrate protein remaining %≤ 100%) | A (0% ≤ substrate protein remaining % ≤ 80%) | B (80%< substrate protein remaining %≤ 100%) | B (80%< substrate protein remaining %≤ 100%) | A (0% ≤ substrate protein remaining % ≤ 80%)
13 | a5 (53% < a5 ≤ 60%) | a8 (80% < a8 ≤100%) |  | CC1(C)CCC(C(=O)N2CCN(C3CCN(Cc4cc(F)c5c(c4)CN(C4CCC(=O)NC4=O)C5=O)CC3(F)F)CC2)=C(c2ccc(Cl)cc2)C1 (centres unmarked) | B (80%< substrate protein remaining %≤ 100%) | B (80%< substrate protein remaining %≤ 100%) | B (80%< substrate protein remaining %≤ 100%) | A (0% ≤ substrate protein remaining % ≤ 80%) | A (0% ≤ substrate protein remaining % ≤ 80%) | B (80%< substrate protein remaining %≤ 100%)
14 | a4 (40% < a4 ≤ 53%) | a7 (70% < a7 ≤80%) |  | O=C1CCC(N2Cc3cc(C(=O)N4CCC(N5CCN(c6cccc(Cl)c6Cl)CC5)C(F)(F)C4)cc(F)c3C2=O)C(=O)N1 (centres unmarked) | B (80%< substrate protein remaining %≤ 100%) | B (80%< substrate protein remaining %≤ 100%) | B (80%< substrate protein remaining %≤ 100%) | A (0% ≤ substrate protein remaining % ≤ 80%) | A (0% ≤ substrate protein remaining % ≤ 80%) | B (80%< substrate protein remaining %≤ 100%)
